Assay in all cases: FOREST: bead pull-down of RNA structure library v1, barcode microarray; U1A/LIN28A: 20 mM HEPES pH 7.5, 80 mM KCl, 20 mM NaCl, 10% glycerol, 2 mM DTT, 0.1 ug/uL BSA, 4 C; BG4/CIRBP/DHX36: 10 mM Tris-HCl pH 7.5, 100 mM KCl (or LiCl),; high values mean tight binding
The target of one experiment is U1A (Homo sapiens, UniProt P09012).
For the next experiment, the target named is T1, LIN28A (human?, UniProt Q9H9Z2 1-209).
T1 sequence: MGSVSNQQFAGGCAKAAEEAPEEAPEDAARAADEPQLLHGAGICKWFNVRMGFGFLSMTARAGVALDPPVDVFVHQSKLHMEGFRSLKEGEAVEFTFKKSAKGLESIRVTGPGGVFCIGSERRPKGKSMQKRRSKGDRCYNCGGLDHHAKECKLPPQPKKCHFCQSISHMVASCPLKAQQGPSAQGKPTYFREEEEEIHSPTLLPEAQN

The target of another experiment is T2, CIRBP (Homo sapiens, UniProt Q14011 1-172).
T2 sequence: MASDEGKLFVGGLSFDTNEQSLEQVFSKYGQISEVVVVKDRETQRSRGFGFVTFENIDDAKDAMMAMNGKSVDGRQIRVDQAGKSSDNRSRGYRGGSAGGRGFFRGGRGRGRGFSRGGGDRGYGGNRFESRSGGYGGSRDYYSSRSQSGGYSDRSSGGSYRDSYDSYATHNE

A further experiment deals with T3, DHX36 (Homo sapiens, UniProt Q9H2U1 1-1008).
T3 sequence: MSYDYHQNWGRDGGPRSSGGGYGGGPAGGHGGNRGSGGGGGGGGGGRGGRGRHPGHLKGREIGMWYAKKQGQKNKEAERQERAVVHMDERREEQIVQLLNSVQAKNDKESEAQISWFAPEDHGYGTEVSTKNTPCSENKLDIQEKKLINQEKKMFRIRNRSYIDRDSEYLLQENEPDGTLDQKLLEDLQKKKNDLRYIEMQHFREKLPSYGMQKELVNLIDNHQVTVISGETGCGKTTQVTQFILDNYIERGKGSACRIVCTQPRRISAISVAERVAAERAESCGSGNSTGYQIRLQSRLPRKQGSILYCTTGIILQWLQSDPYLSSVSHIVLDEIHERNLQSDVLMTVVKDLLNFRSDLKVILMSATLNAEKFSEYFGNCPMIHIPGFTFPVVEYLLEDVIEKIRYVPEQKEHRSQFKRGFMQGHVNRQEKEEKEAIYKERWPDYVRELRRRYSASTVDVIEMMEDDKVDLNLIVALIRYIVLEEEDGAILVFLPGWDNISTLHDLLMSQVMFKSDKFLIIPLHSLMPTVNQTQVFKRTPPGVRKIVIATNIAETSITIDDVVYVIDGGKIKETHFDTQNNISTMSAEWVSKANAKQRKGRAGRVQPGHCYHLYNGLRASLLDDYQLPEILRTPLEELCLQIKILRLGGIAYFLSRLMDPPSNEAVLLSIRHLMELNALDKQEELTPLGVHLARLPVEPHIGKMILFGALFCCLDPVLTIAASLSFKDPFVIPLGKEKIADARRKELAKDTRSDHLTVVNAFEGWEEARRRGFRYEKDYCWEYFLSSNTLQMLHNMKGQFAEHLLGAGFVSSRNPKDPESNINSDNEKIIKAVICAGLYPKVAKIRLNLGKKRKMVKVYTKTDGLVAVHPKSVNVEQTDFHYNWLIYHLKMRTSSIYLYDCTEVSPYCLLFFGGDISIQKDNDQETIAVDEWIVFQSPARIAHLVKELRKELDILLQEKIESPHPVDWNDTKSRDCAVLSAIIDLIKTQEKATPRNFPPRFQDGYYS

The list shows a part of the results.

B1: hsa-mir-1301 (structured_RNA)
RNA: GGGAGACUUCCCGAGAGGGUCAACCUCUGGUGUACGAAGUUUCAGCGCAGCACUGUGCUGGGGAUGUUGCGCUGAAGCUUCGUGCAC
Regarding B1, the binding signal was 0.116 z-score with U1A, 0.285 z-score with LIN28A, -2.18 z-score in the experiment with CIRBP and -0.297 z-score with DHX36.

B2: hsa-mir-6770-1_6770-3_6770-2 (structured_RNA)
RNA: GGGAACAUACGAAGUAGUUAGUCGCAAUGGUGUACGAAGUUUCAGCACGUGACCUCCUGGGCCUGGCUGAAGCUUCGUGCAC
As for B2, the binding signal in the experiment with U1A was 0.0842 z-score; with LIN28A, 0.0835 z-score; with CIRBP it was 0.646 z-score; in the experiment with DHX36 it was -1.46 z-score.

B3: hsa-mir-198 (structured_RNA)
RNA: GGGACAACAGCUGCGAAGGGACACAUUUGGUGUACGAAGUUUCAGCGUUCCUGUGAUUUUUCGCUGAAGCUUCGUGCAC
Take B3: the binding signal with U1A was 0.0803 z-score; in the experiment with LIN28A, 1.38 z-score; in the experiment with CIRBP, -0.535 z-score; in the experiment with DHX36 it was 0.938 z-score.

B4: hsa-mir-4652 (structured_RNA)
RNA: GGGAGAGUCACCAAGGGUAAGUCCAGAUGGUGUACGAAGUUUCAGCGAACUAACUAACCAGAACUAUUUUGUUCGCUGAAGCUUCGUGCAC
Regarding B4, the binding signal with U1A is 0.0842 z-score; in the experiment with LIN28A it was 0.065 z-score; with CIRBP, 0.115 z-score; with DHX36, 0.306 z-score.

B5: hsa-mir-942 (structured_RNA)
RNA: GGGAAACUCACUGGAGAGGUACCGACAGGGUGUACGAAGUUUCAGCUGUGUGUACUCACAGCCCCUCACACAGCUGAAGCUUCGUGCAC
As to B5, the binding signal is 1.74 z-score with U1A, -0.943 z-score in the experiment with LIN28A, -0.484 z-score with CIRBP and -0.815 z-score with DHX36.

B6: hsa-mir-3132 (structured_RNA)
RNA: GGGAACGAUGUUGAGUAUAGAGUUACCCGGUGUACGAAGUUUCAGCAGGACGGUGCGCCUUGUUUCCCGCUGAAGCUUCGUGCAC
Turning to B6, the binding signal in the experiment with U1A stood at 0.104 z-score; with LIN28A, 0.395 z-score; with CIRBP, 0.436 z-score; with DHX36 it was 0.2 z-score.

B7: hsa-mir-3680-2_3680-1 (structured_RNA)
RNA: GGGAAGGACUUUAGCAAGAGUACUCCACGGUGUACGAAGUUUCAGCUGCAAAUGCAAAGUUGGCUUUUGCAGCUGAAGCUUCGUGCAC
As to B7, the binding signal with U1A is 0.103 z-score; with LIN28A, 0.184 z-score; in the experiment with CIRBP, 0.165 z-score; in the experiment with DHX36, -0.25 z-score.

B8: hsa-mir-30a (structured_RNA)
RNA: GGGAAAGGGGCGCCAUAAAAGUCAAGCUGGUGUACGAAGUUUCAGCGAAGCUGUGAAGCCACAGAUGGGCUUUGCUGAAGCUUCGUGCAC
Consider B8, for which the binding signal was 0.109 z-score with U1A, -0.388 z-score in the experiment with LIN28A, 0.0952 z-score in the experiment with CIRBP and 0.327 z-score with DHX36.

B9: hsa-mir-8085 (structured_RNA)
RNA: GGGACCAGUCUGGGUGGAGGGUGUAGAAGGUGUACGAAGUUUCAGCAGGCAUGGGUGGCUGCUGAAGCUUCGUGCAC
As for B9, the binding signal with U1A is 0.0858 z-score; with LIN28A it was 0.207 z-score; with CIRBP it was 0.502 z-score; in the experiment with DHX36, 0.432 z-score.

B10: hsa-mir-1276 (structured_RNA)
RNA: GGGACCUUGGUAUGGCAACUAUAGUACGGGUGUACGAAGUUUCAGCGACACCUGGAUUCAGAGAACAUGUCGCUGAAGCUUCGUGCAC
Turning to B10, the binding signal is 0.114 z-score with U1A, -0.138 z-score in the experiment with LIN28A, -0.391 z-score in the experiment with CIRBP and -0.427 z-score with DHX36.

B11: hsa-mir-5583-1 (structured_RNA)
RNA: GGGAAAUAUCAGGAGGAUAUGCGAUACGGGUGUACGAAGUUUCAGCAUUCUGGCUAGGUGAUCAUCAGAAUGCUGAAGCUUCGUGCAC
In the case of B11, the binding signal is 0.088 z-score in the experiment with U1A, 1.32 z-score with LIN28A, 0.91 z-score with CIRBP and 0.889 z-score with DHX36.

B12: hsa-mir-7853 (structured_RNA)
RNA: GGGAGCUGCGGGUACCAACCUAACAUCCGGUGUACGAAGUUUCAGCCUUCACUGGUGCAGUAAGAAGGCUGAAGCUUCGUGCAC
As to B12, the binding signal is 0.0783 z-score in the experiment with U1A, -1.48 z-score in the experiment with LIN28A, -0.225 z-score in the experiment with CIRBP and -0.513 z-score in the experiment with DHX36.

B13: hsa-mir-4485 (structured_RNA)
RNA: GGGAACCUUCCUGUAAAGUUAGUAGGCAGGUGUACGAAGUUUCAGCCAGUGACAUGCGUUUAACGCUGAAGCUUCGUGCAC
As for B13, the binding signal is 0.0961 z-score with U1A, 0.998 z-score with LIN28A, 0.0306 z-score in the experiment with CIRBP and -0.158 z-score with DHX36.

B14: hsa-mir-6874 (structured_RNA)
RNA: GGGACUAAAUGGGAACGGGAACCUUAUCGGUGUACGAAGUUUCAGCUCAGGCUUUAAUGUUUGAAGUAAUGUCAGUGCUGAAGCUUCGUGCAC
B14: the binding signal in the experiment with U1A is 0.111 z-score; with LIN28A, -0.201 z-score; with CIRBP, -0.5 z-score; with DHX36, -0.882 z-score.

B15: hsa-mir-3130-1 (structured_RNA)
RNA: GGGAGAUGCUGAUAUUGAUACAGUGCCCGGUGUACGAAGUUUCAGCCAGCCUGUUGUCAAGGCUGGCUGAAGCUUCGUGCAC
Consider B15, for which the binding signal with U1A is 0.0823 z-score; in the experiment with LIN28A, -0.659 z-score; with CIRBP it was -0.681 z-score; with DHX36 it was -0.369 z-score.

B16: hsa-mir-4314 (structured_RNA)
RNA: GGGACGAGCCCAAUCUGGUUCAUAGUCAGGUGUACGAAGUUUCAGCACAGGUAGUGGCCACAGUGAGAAAGCUGGCCUGUCCUUCUGCGCUGAAGCUUCGUGCAC
With B16, the binding signal stood at 1.73 z-score in the experiment with U1A, 0.878 z-score with LIN28A, 1.08 z-score in the experiment with CIRBP and 0.548 z-score with DHX36.

B17: hsa-mir-101-1 (structured_RNA)
RNA: GGGAAAAGUUGUACGCCUGCGCCCUGUAGGUGUACGAAGUUUCAGCGAUGCUGUCUAUUCUAAAGGUACGCUGAAGCUUCGUGCAC
For B17, the binding signal was 0.0942 z-score in the experiment with U1A, 0.137 z-score with LIN28A, 0.558 z-score in the experiment with CIRBP and -0.686 z-score with DHX36.

B18: hsa-mir-4488 (structured_RNA)
RNA: GGGAAAUUUGGAGCACCCUAAACCGGCCGGUGUACGAAGUUUCAGCGGCGCUGGGACCCCACUAGGGUGGCGCCGCUGAAGCUUCGUGCAC
As for B18, the binding signal with U1A was 0.0999 z-score; with LIN28A, -0.271 z-score; with CIRBP, 0.356 z-score; with DHX36, -0.641 z-score.

B19: hsa-mir-6804 (structured_RNA)
RNA: GGGAACUGGCGAGGUCUCGUAGCCUAACGGUGUACGAAGUUUCAGCGACGGUGGGGGCCACGCUGACAGCCGCGCUGAAGCUUCGUGCAC
Consider B19, for which the binding signal with U1A is 0.0917 z-score; in the experiment with LIN28A, -0.64 z-score; with CIRBP, -0.207 z-score; in the experiment with DHX36, 0.303 z-score.

B20: hsa-mir-3155b (structured_RNA)
RNA: GGGAGUGUGGAUCGCGGCUUUCAACGUAGGUGUACGAAGUUUCAGCCUGGGAAGGGAGCUGUCCGGCUCCCCAGGCUGAAGCUUCGUGCAC
As for B20, the binding signal with U1A is 0.112 z-score; in the experiment with LIN28A, -0.309 z-score; with CIRBP it was -0.56 z-score; with DHX36, 0.11 z-score.

B21: hsa-mir-5571 (structured_RNA)
RNA: GGGAACAGAAAAGCCAUUAUGGAGUCAGGGUGUACGAAGUUUCAGCUCCCAGGAAAUUCACUUUAGGAAGUCCUAGGAGCUGAAGCUUCGUGCAC
Consider B21, for which the binding signal with U1A is 0.0795 z-score; with LIN28A, -1.01 z-score; with CIRBP, 0.389 z-score; in the experiment with DHX36, -0.266 z-score.

B22: hsa-mir-4482 (structured_RNA)
RNA: GGGACGUAUAUGGCCAGUUGGGGAACGUGGUGUACGAAGUUUCAGCGAAAUGUGUGGAAGAUGGCAUUUCGCUGAAGCUUCGUGCAC
For the molecule B22, the binding signal with U1A is 0.0945 z-score; in the experiment with LIN28A, 0.294 z-score; with CIRBP, -0.428 z-score; with DHX36, 0.237 z-score.

B23: hsa-mir-520c_520b_519c_519b (structured_RNA)
RNA: GGGAAAGCUCUUUUGCAAACGCGGCAGAGGUGUACGAAGUUUCAGCCUUUCUGUUGUCUGAAAGAAAAGAAAGGCUGAAGCUUCGUGCAC
Regarding B23, the binding signal is 0.0908 z-score in the experiment with U1A, -1.08 z-score with LIN28A, 0.199 z-score with CIRBP and -0.102 z-score with DHX36.

Values taken from publication PMC7723054.
